Ab-14 heavy chain CDR variants: yeast mating affinities

Reference: Li et al. 2023, doi:10.1038/s41467-023-39022-2. File: FLAb, binding data.

All variants were tested on one target, the spike HR2 peptide PDVDLGDISGINAS (SARS-CoV-2).

The variants keep the light chain, the linker and the frameworks of Ab-14 (scFv order VH, a (GGGGS)3 linker, VL).
VH: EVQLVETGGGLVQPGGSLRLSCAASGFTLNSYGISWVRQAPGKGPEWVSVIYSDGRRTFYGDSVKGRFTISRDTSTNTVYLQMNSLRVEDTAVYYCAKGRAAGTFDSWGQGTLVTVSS
VL: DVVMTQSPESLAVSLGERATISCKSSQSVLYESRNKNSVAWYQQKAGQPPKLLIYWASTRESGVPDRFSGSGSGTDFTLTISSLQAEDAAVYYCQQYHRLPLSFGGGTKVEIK

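The parent was found by panning a naive human phage display library on the peptide. Designed CDR sequences, proposed from the first random library and measured here. Several design methods are mixed in this list. AlphaSeq pools MATa yeast showing the antibodies with MATalpha yeast showing the peptide. Binding brings cells together so that they mate, and sequencing counts the barcode pairs among the diploids. The ratio of observed to expected reads was calibrated, replicate by replicate, on BCL2-family standards whose Kd was known from biolayer interferometry. Each pool was mated in six replicate cultures.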

Each variant is given by its three heavy chain CDRs, as the data file delimits them; those of the parent are GFTLNSYGIS, VIYSDGRRTFYGDSVK, GRAAGTFDS.
Variants here have at most six changes.
Values are apparent Kd, the geometric mean of the replicates that gave a signal; lower means stronger binding.
"nd" means that the variant was in the library but no mating with the target was seen in any replicate; the authors take this as a sign of poor binding, and no number exists.
Background: pairings of all heavy chain designs with three empty control strains gave a value in 1% of cases (median 120 nM, 5th percentile 7.0 nM). Values in that range, when seen in few replicates, are hard to tell from nonspecific mating.
The authors' rule: three or more of the six replicates give a measured affinity, fewer mean a poor binder.
The range of this assay differs from that of the first round, and the authors advise against merging the two.

With GFTLESYGIS / VIYADGRRTFYGDHVK / GRAAGTFES the result was nd (0 of 6 replicates). The variant GFTLDSYGIS / VIYHDGRRTFYADSVK / GRAAGTNDS showed nd (0 of 6 replicates). The variant GFTLNDYGIS / VIYFDGRRTFEGDSVK / GRAALTFIS showed nd (0 of 6 replicates). The variant GFELNSYGIS / VIYADGRRTFYGDSVK / GRAAGTFDA gave 2.8 nM (6 of 6 replicates). The variant GFTLNSYGIS / VIYSDGRRTFYDDSVK / GQEAGTFDR gave 110 nM (5 of 6 replicates).

For GFCLNSYGIS / VIYSDGRRTHYGDSVK / TRAAGTFHS, the assay gave nd (0 of 6 replicates). The variant GFTGNEYGIS / VIYSDGRQTFYTDSVK / GRFAGTFDS gave nd (0 of 6 replicates). The variant GATLNSYGIS / VIYSDGRRTFYGDSVR / GRQAGTFDS showed 74 nM (1 of 6 replicates). With GFSLNSYGIS / VIYSDGRRTFYSDSVK / GGQAGTFDS the result was 640 pM (1 of 6 replicates). For GFTLNSYGIS / VIYSDGRRTFYSDSVK / GTDAGTFDS, the assay gave 100 nM (6 of 6 replicates).

The variant GFSLNSYGIS / VIYSDGRRTFYDDSVK / GQVAGTFDS showed 1.9 nM (6 of 6 replicates). The variant GFLLNDYGIS / VIYSDGRRTFYIDHVK / GKAAGTFDS showed 170 nM (2 of 6 replicates). For GFTLNSYGIS / VIYSDGLRTFYGDSVR / GRAAGTFDS, the assay gave 7.8 nM (2 of 6 replicates). For GFTLNSYGIS / VIYSDGRRTFMGDSFK / GRAAGTFDS, the assay gave nd (0 of 6 replicates). For GFTLNSYGIS / VIYSDGFRCGYNDSVK / GYAAGTFDS, the assay gave nd (0 of 6 replicates).

The variant GFTLNDYGIS / VIYSDGRRTFYGDSVK / GRQAVTFDQ showed 140 nM (1 of 6 replicates). With GTELNSYGIS / VIYSDGRRTFYGDSVK / GRAAGTFLS the result was 3.6 µM (1 of 6 replicates). For GFTLNSYGIS / VIYSDGRRTYYGDSVK / GRAAGTFGS, the assay gave 1.1 µM (1 of 6 replicates). The variant GFDLNSYGIS / VIYSDGRRTFYGDSVK / GREAGIFDS gave nd (0 of 6 replicates). With GFELNSYGIS / VIYADGRRTFYGDSVK / GQAAGTFDK the result was 920 pM (6 of 6 replicates).

The variant GFTLNQYGIS / VIYSDGQRTFYSDSVK / GRAAGTFDS showed 1.1 nM (6 of 6 replicates). For GFTLNSYGIS / VIYSDGIRTFYGDSVK / GKAAGTFDS, the assay gave 92 nM (3 of 6 replicates). For GFGLNEYGIS / VIYSDGRRTFYGDSVK / GQAAGTFDD, the assay gave 420 nM (1 of 6 replicates). The variant GFWLNDYGIS / VIYSDGRRTQYIDSVK / GRAAGTFDS showed 6.3 nM (1 of 6 replicates). For GFDLNSYGIS / VIYSDGRRTFYADRVK / GVAAGTFDS, the assay gave 2.7 nM (6 of 6 replicates).

For GFSLNEYGIS / VIYSDGRRTFYGDSVK / GRNAGTFIS, the assay gave nd (0 of 6 replicates). For GFYLNEYGIS / VIYSDGRRTMYGDSVK / GRTAGTFDS, the assay gave 19 nM (6 of 6 replicates). For GFSLNSYGIS / VIYSDGRRTFYGDSVK / GQAAGTFDI, the assay gave 680 pM (4 of 6 replicates). With GFSINSYGIS / VIYGDGRRTFYGDSVS / GSVAGTFDS the result was 16 nM (6 of 6 replicates). The variant GFHLNSYGIS / VIYSDGRRTFYADSVK / GKQAGTFDS gave 8.9 nM (6 of 6 replicates).

For GFTLNSYVIS / VIYEDGRRTFYEDSVV / GRAAGTSDS, the assay gave nd (0 of 6 replicates).

Picked from the list: the 2 lowest averages where every replicate gave a value.

For GFELNSYGIS / VIYADGRRTFYGDSVK / GQAAGTFDK, the assay gave 920 pM (6 of 6 replicates).
For GFTLNQYGIS / VIYSDGQRTFYSDSVK / GRAAGTFDS, the assay gave 1.1 nM (6 of 6 replicates).